Measurements published in patent publication US12590954B2, “Neural stem cell-induced differential medium and induction differentiation method” (IREGENE THERAPEUTICS, CO., LTD., priority 2020, dated 2026).

Tested on: Human pluripotent stem cells
Assay: CyQuant quantitative detection of cell viability during induction
Assay type: cell-based
Settings: different concentrations, long-term culture
Experimental: The Cyquant assay was used to perform the quantitative detection of cell viability, thus investigating the effect of LY2157299 on the physiological state of the cells during long-term culture of the cells; Among them, the LSB method was used as the control group. 96-well light-tight cell culture plates were coated; after the coating was complete, cells were seeded separately at 5×10^4 cell number per well and three sets of parallel replicates were set (the average of three sets was calculated as data) to repeat the procedure of example 2.1. Wherein, the culture procedures described previously were incubated at 37° C. with 5% CO2. Samples were taken on days 1, 5, 10, 15 and 20 for cell viability assay using CyQuant Kit (Invitrogen, cat. No: X12223). The aforementioned assay was operated according to the instructions with a Spectramax i3 Multi-Mode Microplate Reader (VWR, model number: ID3-STD) for data reading. […] Combined with cost factors, the range of recombinant insulin and recombinant serum albumin used by the present invention falls within the range of optimal use.

recombinant serum albumin: protein tested at different concentrations for cell growth
rate of cell proliferation versus concentration (CyQuant): positively correlated with the rate of cell proliferation
